For this assay, the system named is MCF-7 (breast cancer). In words: MTT cytotoxicity assay, MCF-7 cells. The settings on record: Homo sapiens, MCF7, 72 h, MCF-7, c 8.00 μM, three replicates; read-out: cell inhibition. The format is cell-based. How it is done: The cytotoxicity of all compounds against three human tumor cell lines, SF-268 (CNS cancer), MCF-7 (breast cancer), and HepG2 (hepatoma cancer), and normal cell line LX-2 was tested using the MTT assay. Adriamycin was used as a positive control. All cells were seeded into 96-well plates at 5 × 10^4 cells/ml and incubated at 37°C under a 5% CO2 atmosphere for 24 h. Then, the tested compounds were added. After 72 h, MTT solution was added into each well, which was further incubated. The cell-free supernatant was removed and formazan crystals were subsequently dissolved in DMSO. Optical density (OD) was recorded at 490 nm on a microplate reader to calculate the IC50 values.
In general terms: Tetrazolium dyes change colour on reduction, which living cells bring about.

As a reminder, the inhibition is the relative decrease from the control value, in per cent. On to `COc1cccc2c1C(=O)c1c(O)c3c(c(O)c1C2=O)C[C@@](O)(C(=O)CO)C[C@@H]3O[C@H]1C[C@H](N)[C@H](O)[C@H](C)O1` [Adriamycin, reference compound], for which the inhibition at 8 µM worked out at 78.2%.

The values are drawn from paper PMC8640094, “Diaportones A–C: Three New Metabolites From Endophytic Fungus Diaporthe foeniculina BZM-15” (Frontiers in Chemistry, 2021).
